Our source for the IC50 values is ChEMBL document CHEMBL3436046, “Predictive model for L-type channel inhibition: multichannel block in QT prolongation risk assessment” (J Appl Toxicol, 2012).

By UniProt entry, the sequences of proteins in these tests, tags left out.
UniProt Q13936, whole entry: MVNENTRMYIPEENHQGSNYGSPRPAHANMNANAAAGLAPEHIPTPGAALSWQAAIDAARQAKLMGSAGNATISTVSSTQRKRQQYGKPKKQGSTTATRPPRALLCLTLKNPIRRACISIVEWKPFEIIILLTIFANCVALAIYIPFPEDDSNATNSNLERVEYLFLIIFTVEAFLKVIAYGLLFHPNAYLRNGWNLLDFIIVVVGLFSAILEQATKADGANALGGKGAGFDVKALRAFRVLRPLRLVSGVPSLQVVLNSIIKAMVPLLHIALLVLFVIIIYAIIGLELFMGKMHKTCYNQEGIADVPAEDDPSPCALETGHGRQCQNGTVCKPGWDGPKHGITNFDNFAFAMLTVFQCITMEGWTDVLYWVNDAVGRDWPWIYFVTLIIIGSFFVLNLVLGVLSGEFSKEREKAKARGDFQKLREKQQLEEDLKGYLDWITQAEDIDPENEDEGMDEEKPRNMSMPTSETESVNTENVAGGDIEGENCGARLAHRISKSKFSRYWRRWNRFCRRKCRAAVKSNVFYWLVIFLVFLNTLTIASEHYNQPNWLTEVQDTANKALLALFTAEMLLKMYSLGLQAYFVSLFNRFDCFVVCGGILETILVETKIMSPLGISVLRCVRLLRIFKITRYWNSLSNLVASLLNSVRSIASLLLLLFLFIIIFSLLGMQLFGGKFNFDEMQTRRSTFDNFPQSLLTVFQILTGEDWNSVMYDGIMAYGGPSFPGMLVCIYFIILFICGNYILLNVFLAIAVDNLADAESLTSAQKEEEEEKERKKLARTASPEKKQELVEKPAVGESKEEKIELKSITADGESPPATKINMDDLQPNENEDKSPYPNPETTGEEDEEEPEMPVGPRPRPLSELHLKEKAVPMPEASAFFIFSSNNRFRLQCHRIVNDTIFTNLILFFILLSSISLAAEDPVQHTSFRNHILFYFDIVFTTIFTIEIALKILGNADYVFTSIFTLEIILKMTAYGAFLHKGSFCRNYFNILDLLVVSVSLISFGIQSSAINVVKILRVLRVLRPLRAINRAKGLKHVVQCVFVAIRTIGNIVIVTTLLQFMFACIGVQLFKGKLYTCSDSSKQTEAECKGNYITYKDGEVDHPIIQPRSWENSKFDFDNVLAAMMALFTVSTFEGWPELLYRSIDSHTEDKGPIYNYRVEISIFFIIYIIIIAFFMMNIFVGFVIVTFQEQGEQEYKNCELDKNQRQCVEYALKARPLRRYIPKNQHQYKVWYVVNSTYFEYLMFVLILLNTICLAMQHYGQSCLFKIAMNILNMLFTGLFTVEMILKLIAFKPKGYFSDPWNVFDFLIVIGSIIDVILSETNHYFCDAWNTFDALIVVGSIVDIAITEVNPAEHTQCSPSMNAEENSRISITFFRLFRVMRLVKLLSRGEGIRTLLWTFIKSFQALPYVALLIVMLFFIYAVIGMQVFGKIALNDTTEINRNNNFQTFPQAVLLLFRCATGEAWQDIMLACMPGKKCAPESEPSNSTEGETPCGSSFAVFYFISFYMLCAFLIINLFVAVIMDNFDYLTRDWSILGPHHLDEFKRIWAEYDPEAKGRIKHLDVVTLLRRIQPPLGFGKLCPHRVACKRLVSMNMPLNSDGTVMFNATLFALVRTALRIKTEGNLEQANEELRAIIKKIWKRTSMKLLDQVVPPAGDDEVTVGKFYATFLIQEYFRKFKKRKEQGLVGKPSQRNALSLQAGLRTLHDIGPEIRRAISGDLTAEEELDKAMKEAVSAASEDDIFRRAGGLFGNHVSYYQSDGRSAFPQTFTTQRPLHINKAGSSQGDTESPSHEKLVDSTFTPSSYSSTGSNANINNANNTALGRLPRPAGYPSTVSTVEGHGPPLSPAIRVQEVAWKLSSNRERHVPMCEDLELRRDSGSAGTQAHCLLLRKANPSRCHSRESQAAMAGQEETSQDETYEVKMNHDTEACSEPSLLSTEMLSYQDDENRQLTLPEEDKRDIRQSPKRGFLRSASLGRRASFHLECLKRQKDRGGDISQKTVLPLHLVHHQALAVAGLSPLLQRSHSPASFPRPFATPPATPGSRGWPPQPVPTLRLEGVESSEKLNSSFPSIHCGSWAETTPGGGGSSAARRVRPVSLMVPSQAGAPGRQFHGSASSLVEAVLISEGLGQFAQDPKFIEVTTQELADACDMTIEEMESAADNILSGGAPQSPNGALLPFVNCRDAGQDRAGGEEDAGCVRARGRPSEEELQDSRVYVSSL
UniProt O35505, whole entry: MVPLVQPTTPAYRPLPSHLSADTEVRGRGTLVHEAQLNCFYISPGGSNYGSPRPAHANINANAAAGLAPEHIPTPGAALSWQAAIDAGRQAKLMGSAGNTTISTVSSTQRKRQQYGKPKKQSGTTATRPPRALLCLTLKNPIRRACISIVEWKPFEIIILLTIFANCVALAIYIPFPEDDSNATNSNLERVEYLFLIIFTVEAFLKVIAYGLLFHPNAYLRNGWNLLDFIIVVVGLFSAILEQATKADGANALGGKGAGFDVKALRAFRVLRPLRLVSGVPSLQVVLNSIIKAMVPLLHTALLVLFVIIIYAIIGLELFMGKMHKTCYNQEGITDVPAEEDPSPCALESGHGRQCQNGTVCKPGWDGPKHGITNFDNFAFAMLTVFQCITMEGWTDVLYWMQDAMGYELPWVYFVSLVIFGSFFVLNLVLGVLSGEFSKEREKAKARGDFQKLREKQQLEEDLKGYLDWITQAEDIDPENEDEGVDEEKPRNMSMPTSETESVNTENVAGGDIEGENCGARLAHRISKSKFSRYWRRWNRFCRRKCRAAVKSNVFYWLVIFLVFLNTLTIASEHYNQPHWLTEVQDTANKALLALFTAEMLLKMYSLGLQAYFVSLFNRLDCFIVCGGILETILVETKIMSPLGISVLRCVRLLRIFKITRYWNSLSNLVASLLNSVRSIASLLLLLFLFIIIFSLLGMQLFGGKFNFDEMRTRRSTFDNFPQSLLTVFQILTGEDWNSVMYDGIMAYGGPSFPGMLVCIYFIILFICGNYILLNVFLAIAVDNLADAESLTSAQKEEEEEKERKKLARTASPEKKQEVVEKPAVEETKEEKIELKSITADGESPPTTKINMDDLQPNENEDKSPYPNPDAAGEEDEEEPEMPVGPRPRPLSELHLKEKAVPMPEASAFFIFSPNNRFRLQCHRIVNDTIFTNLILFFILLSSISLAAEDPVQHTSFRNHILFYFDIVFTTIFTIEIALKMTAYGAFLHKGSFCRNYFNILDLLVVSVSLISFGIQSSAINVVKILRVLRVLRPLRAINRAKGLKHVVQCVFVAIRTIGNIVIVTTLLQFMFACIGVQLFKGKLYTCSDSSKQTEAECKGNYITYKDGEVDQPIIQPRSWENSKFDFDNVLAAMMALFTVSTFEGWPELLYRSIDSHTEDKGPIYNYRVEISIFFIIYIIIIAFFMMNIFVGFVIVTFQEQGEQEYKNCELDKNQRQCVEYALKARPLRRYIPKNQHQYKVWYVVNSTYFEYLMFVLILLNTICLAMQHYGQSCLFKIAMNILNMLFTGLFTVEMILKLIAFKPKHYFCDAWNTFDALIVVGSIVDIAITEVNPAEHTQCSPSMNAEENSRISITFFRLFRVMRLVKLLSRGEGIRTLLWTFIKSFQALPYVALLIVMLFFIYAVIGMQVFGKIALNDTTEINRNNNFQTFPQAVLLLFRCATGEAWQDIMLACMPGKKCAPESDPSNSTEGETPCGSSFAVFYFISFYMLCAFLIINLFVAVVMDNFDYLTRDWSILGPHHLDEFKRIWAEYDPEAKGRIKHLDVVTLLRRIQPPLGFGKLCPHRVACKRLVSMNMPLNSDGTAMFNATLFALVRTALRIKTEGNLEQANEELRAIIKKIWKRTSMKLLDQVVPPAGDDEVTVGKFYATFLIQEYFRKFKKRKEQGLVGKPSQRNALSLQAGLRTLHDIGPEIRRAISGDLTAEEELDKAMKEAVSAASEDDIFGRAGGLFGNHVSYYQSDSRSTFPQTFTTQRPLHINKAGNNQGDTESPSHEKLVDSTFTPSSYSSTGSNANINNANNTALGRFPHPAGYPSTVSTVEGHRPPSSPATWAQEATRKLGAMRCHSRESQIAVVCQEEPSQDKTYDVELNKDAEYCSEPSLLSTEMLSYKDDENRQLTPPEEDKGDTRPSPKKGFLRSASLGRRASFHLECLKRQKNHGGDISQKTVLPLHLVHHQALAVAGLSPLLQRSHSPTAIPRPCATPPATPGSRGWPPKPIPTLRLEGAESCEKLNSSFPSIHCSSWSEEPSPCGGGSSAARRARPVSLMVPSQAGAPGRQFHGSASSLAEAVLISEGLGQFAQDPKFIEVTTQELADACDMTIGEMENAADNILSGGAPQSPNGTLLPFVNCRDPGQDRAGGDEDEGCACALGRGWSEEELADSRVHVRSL

Structures are written as SMILES.

Assay [1] addresses Voltage-dependent L-type calcium channel subunit alpha-1C (Homo sapiens, UniProt Q13936).
The target of assay [2] is T1, Voltage-dependent L-type calcium channel subunit alpha-1C (Cavia porcellus, UniProt O35505).
In assay [3] the target is T1, Voltage-dependent L-type calcium channel subunit alpha-1C. This is another data set of the same source.
The target is the same in assay [4]. This is another data set of the same source.

A word on the IC50: it is the point on the concentration scale where inhibition reaches its midpoint.

Take `CC(C)COCC(CN(Cc1ccccc1)c1ccccc1)N1CCCC1` (centres undefined) [BEPRIDIL]: the IC50 in assay [1] turned out to be 1.4 µM.
Regarding `COc1ccc([C@@H]2Sc3ccccc3N(CCN(C)C)C(=O)[C@@H]2OC(C)=O)cc1` [DILTIAZEM], the IC50 in assay [2] stood at 0.63 µM; in assay [3], 30 µM; in assay [4] it was 74 µM.
